Results on one substance are retold here after US20210317408A1, “METHODS AND COMPOSITIONS FOR GENETICALLY MODIFYING LYMPHOCYTES IN BLOOD OR IN ENRICHED PBMCS” (Exuma Biotech Corp., priority 2018, published 2021).

The assay concerns PBMCs expressing eTag. The assay is described as follows: Elimination of eTag-expressing PBMCs exposed to Cetuximab in vitro. The format is cell-based. From the text: Others have shown that application of biotinylated-cetuximab to immunomagnetic selection in combination with anti-biotin microbeads successfully enriches T cells that have been lentivirally transduced with EGFRt-containing constructs from as low as 2% of the population to greater than 90% purity without observable toxicity to the cell preparation. […] In addition, others have shown that through flow cytometric analysis, EGFR was successfully utilized as an in vivo tracking marker for T cell engraftment in mice. […] Thus, EGFR may be used as a non-immunogenic selection tool, tracking marker, and suicide gene for transduced T cells that have immunotherapeutic potential. The EGFR nucleic acid may also be detected by means well known in the art.

For “Cetuximab: commercially available anti-EGFR monoclonal antibody”, the “elimination of PBMCs expressing eTag” value was “effective elimination mechanism”.
